Experimental data published in patent US11448643B2, “Methods to specifically profile protease activity at lymph nodes” (Massachusetts Institute of Technology, priority 2016, dated 2022).

Settings: healthy mice, subcutaneous injection, FIG. 5

## Albumin-GPLGVRGKGK(Biotin)eGvndneeGffsarK(FAM) [Albumin-B7]
24 hours post-injection
  urine reporter signal at 24 hours post-injection: detectable signal
post-injection
  time of peak urine signal of reporter: 3 h
